Measurements reported in PubChem BioAssay (NCI).
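The compound was tested at five concentrations on cells cultured in 96-well plates, with a 48-hour exposure period. At the TGI there is no net growth.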

Tests used:
Test in all cases: inhibition of tumour cell growth, NCI panel, 48 h
CCRF-CEM leukemia = system: CCRF-CEM leukemia
786-0 renal = system: 786-0 renal
PC-3 prostate = system: PC-3 prostate
HCT-116 colon = system: HCT-116 colon
DU-145 prostate = system: DU-145 prostate
NCI/ADR-RES ovarian = system: NCI/ADR-RES ovarian
CAKI-1 renal = system: CAKI-1 renal
MCF7 breast = system: MCF7 breast
MALME-3M melanoma = system: MALME-3M melanoma
MDA-MB-435 = system: MDA-MB-435
U251 CNS = system: U251 CNS
OVCAR-3 ovarian = system: OVCAR-3 ovarian
HCC-2998 colon = system: HCC-2998 colon
OVCAR-5 ovarian = system: OVCAR-5 ovarian
NCI-H522 lung = system: NCI-H522 lung
SF-295 CNS = system: SF-295 CNS
LOX IMVI melanoma = system: LOX IMVI melanoma
UO-31 renal = system: UO-31 renal
SK-MEL-5 melanoma = system: SK-MEL-5 melanoma
NCI-H23 lung = system: NCI-H23 lung
OVCAR-8 ovarian = system: OVCAR-8 ovarian
COLO 205 colon = system: COLO 205 colon
SN12C renal = system: SN12C renal
SR leukemia = system: SR leukemia
HCT-15 colon = system: HCT-15 colon
HOP-62 NSCLC = system: HOP-62 NSCLC
RXF 393 renal = system: RXF 393 renal
MOLT-4 leukemia = system: MOLT-4 leukemia
HS 578T breast = system: HS 578T breast
SF-268 CNS = system: SF-268 CNS
MDA-MB-231 breast = system: MDA-MB-231 breast
KM12 colon = system: KM12 colon
NCI-H460 lung = system: NCI-H460 lung
IGROV1 ovarian = system: IGROV1 ovarian
TK-10 renal = system: TK-10 renal
RPMI-8226 leukemia = system: RPMI-8226 leukemia
SK-MEL-2 melanoma = system: SK-MEL-2 melanoma
OVCAR-4 ovarian = system: OVCAR-4 ovarian
SK-OV-3 ovarian = system: SK-OV-3 ovarian
M14 melanoma = system: M14 melanoma
EKVX NSCLC = system: EKVX NSCLC
A549 NSCLC = system: A549 NSCLC
SNB-19 CNS = system: SNB-19 CNS
T-47D breast = system: T-47D breast
ACHN renal = system: ACHN renal
HL-60(TB) leukemia = system: HL-60(TB) leukemia
NCI-H322M lung = system: NCI-H322M lung
UACC-257 melanoma = system: UACC-257 melanoma
SK-MEL-28 melanoma = system: SK-MEL-28 melanoma
A498 renal = system: A498 renal
HT29 colon = system: HT29 colon
SNB-75 CNS = system: SNB-75 CNS
UACC-62 melanoma = system: UACC-62 melanoma
HOP-92 NSCLC = system: HOP-92 NSCLC
SW-620 colon = system: SW-620 colon
SF-539 CNS = system: SF-539 CNS
K-562 leukemia = system: K-562 leukemia
NCI-H226 lung = system: NCI-H226 lung
BT-549 breast = system: BT-549 breast
MDA-N = system: MDA-N

SMILES: CC1=CC23C(COC(=O)C24CO4)C(C(=O)O)=CC3C1C (stereo not given)
- TGI (CCRF-CEM leukemia): 27.6 µM
- TGI (786-0 renal): 74.6 µM
- TGI (PC-3 prostate): 50.2 µM
- TGI (HCT-116 colon): 87.7 µM
- TGI (DU-145 prostate): 82.7 µM
- TGI (NCI/ADR-RES ovarian): 41.9 µM
- TGI (CAKI-1 renal): 39.4 µM
- TGI (MCF7 breast): > 100 µM
- TGI (MALME-3M melanoma): 17.6 µM
- TGI (MDA-MB-435): 89 µM
- TGI (U251 CNS): > 100 µM
- TGI (OVCAR-3 ovarian): 95.4 µM
- TGI (HCC-2998 colon): 38.5 µM
- TGI (OVCAR-5 ovarian): > 100 µM
- TGI (NCI-H522 lung): 4.32 µM
- TGI (SF-295 CNS): > 100 µM
- TGI (LOX IMVI melanoma): 29.9 µM
- TGI (UO-31 renal): 82 µM
- TGI (SK-MEL-5 melanoma): 59.8 µM
- TGI (NCI-H23 lung): 82.6 µM
- TGI (OVCAR-8 ovarian): 62 µM
- TGI (COLO 205 colon): 92.5 µM
- TGI (SN12C renal): 14.1 µM
- TGI (SR leukemia): 81.4 µM
- TGI (HCT-15 colon): 69.5 µM
- TGI (HOP-62 NSCLC): 60.3 µM
- TGI (RXF 393 renal): 17.9 µM
- TGI (MOLT-4 leukemia): 45.2 µM
- TGI (HS 578T breast): 8.31 µM
- TGI (SF-268 CNS): 24.8 µM
- TGI (MDA-MB-231 breast): 96.4 µM
- TGI (KM12 colon): 31.1 µM
- TGI (NCI-H460 lung): 58.6 µM
- TGI (IGROV1 ovarian): 75.9 µM
- TGI (TK-10 renal): 94.6 µM
- TGI (RPMI-8226 leukemia): 8.88 µM
- TGI (SK-MEL-2 melanoma): 8.99 µM
- TGI (OVCAR-4 ovarian): 80.1 µM
- TGI (SK-OV-3 ovarian): 71.6 µM
- TGI (M14 melanoma): 17.4 µM
- TGI (EKVX NSCLC): 98 µM
- TGI (A549 NSCLC): 82.2 µM
- TGI (SNB-19 CNS): 31.5 µM
- TGI (T-47D breast): 41.4 µM
- TGI (ACHN renal): 79.5 µM
- TGI (HL-60(TB) leukemia): 61.1 µM
- TGI (NCI-H322M lung): 74.8 µM
- TGI (UACC-257 melanoma): 88.8 µM
- TGI (SK-MEL-28 melanoma): 5.29 µM
- TGI (A498 renal): 64 µM
- TGI (HT29 colon): 69.5 µM
- TGI (SNB-75 CNS): 65.2 µM
- TGI (UACC-62 melanoma): 28.7 µM
- TGI (HOP-92 NSCLC): 43.5 µM
- TGI (SW-620 colon): > 100 µM
- TGI (SF-539 CNS): 54.5 µM
- TGI (K-562 leukemia): 45.8 µM
- TGI (NCI-H226 lung): 45.4 µM
- TGI (BT-549 breast): 61 µM
- TGI (MDA-N): 75.5 µM
